Literature values as cited in PMC4500090 (Biochemical and biophysical research communications, 2015).

System: humans with advanced solid tumors and non-Hodgkin's lymphoma
Settings: cited from earlier work

Structure (SMILES): O=C(Nc1c[nH]nc1-c1nc2cc(CN3CCOCC3)ccc2[nH]1)NC1CC1 [AT9283]
- Tolerability in phase I clinical trials: well tolerated
